Consider one substance from patent US20260115261A1, “COLLAGEN PEPTIDE-BASED MEDICAMENT COMPOSITIONS AND USES THEREOF” (SUSTAIN HOLDINGS, LLC, priority 2023, published 2026).

In this assay the target is MMP-1-digested type I collagen (plate coating). Briefly: cell-based or functional assay.

CMP 09C, (Pro-Flp-Gly)7 (peptide): the longest neurite outgrowth of DRG explants on MMP1-digested collagen treated with CMP, normalized to intact collagen (% greater than intact collagen) was found to be 21.
